Assay results published in PubChem BioAssay AID720508 (The Scripps Research Institute Molecular Screening Center, 2013).
The list shows a part of the results, in another mix than the full data. The source made the active and inactive calls.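 The calls were made as follows: active = inhibition above the mean of compounds falling within the control limits plus 3 SD of them (cut at about 14% in these data); inactive = the rest.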

By UniProt entry, the sequences of proteins in these tests, tags left out. Where a name states a change or a piece, a line headed by the entry shows the natural chain unless it says otherwise.
UniProt P02675: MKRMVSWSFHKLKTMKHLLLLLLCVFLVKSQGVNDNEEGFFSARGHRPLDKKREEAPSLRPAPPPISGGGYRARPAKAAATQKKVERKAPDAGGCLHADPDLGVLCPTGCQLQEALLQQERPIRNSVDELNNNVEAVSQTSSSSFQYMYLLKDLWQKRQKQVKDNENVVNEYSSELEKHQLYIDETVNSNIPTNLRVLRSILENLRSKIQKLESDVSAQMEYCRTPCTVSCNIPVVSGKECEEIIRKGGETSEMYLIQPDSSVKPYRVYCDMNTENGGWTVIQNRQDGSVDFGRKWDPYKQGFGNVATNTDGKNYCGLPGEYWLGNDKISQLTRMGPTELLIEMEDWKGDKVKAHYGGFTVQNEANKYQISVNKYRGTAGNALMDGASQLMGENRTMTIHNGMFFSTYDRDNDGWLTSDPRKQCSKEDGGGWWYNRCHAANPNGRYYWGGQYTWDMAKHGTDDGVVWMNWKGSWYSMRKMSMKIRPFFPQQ

Target: Fibrinogen beta chain (Homo sapiens) (UniProt P02675)
Assay: small molecules displacing Tn7 from DD(E) complex – biochemical, fluorescence polarization, human fibrin, Tn7 probe, primary screen (AID 720508);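 also: 0% = plate median of compound wells and 100% = 10 µM Aha-Tn7 peptide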
Details: FP displacement of FITC-Tn7 peptide from fibrin DD(E); at 8.3 µM; hits give high values; 0% = median of compound wells per plate

| SMILES | inhibition |
| --- | --- |
| O=C(O)COc1ccc([As](=O)(O)O)cc1[N+](=O)[O-] | inactive: 2.12% |
| Nc1ccccc1[As](=O)(O)c1ccccc1 | inactive: -15.5% |
| CCOP1(=S)c2c(C)nn(CCC#N)c2N=C(c2ccccc2F)N1C (configuration not stated) | inactive: 5.95% |
| O=P(Nc1nccs1)(Oc1ccccc1)Oc1ccccc1 | inactive: 5.06% |
| N#CCCN(C(=O)COC(=O)C(O)(c1ccccc1)c1ccccc1)c1ccc(F)cc1 | inactive: -0.08% |
| CN(C(=O)Cc1ccccc1)[C@@H]1CC[C@]2(CCCO2)C[C@H]1N1CCCC1 | inactive: 7.23% |
| CCOP1(=S)c2c(C)nn(CCC#N)c2N=C(c2ccc(F)cc2)N1C (configuration not stated) | inactive: 2.89% |
| O=[N+]([O-])c1ccc2c(c1)nnn2O | inactive: -3.14% |
| CN(C)C(=O)c1cc([N+](=O)[O-])cc2c1-c1c(cc([N+](=O)[O-])cc1[N+](=O)[O-])C2=O | inactive: 0.85% |
| CN(C(=O)Cc1ccc(Cl)c(Cl)c1)[C@H]1CC[C@@]2(CCCO2)C[C@@H]1N1CCCC1 | inactive: -1.44% |
| Cc1cccc(OCC(=O)OC2CN3CCC2CC3)c1 (configuration not stated) | inactive: -4.36% |
| O=[As](O)(c1cccc(O)c1)c1cccc(O)c1 | inactive: -6.05% |
| O=C(OC1CN2CCC1CC2)c1ccc(Cl)cc1 (configuration not stated) | inactive: 2.01% |
| O=[As](O)(O)c1cccnc1 | inactive: -8.4% |
| COc1cc(C(=O)NCC2(N3CCOCC3)CCCCC2)cc(Cl)c1OC(C)C | inactive: 3.18% |
| CS(=O)(=O)c1ccc(Cl)c(NC(=O)COC(=O)C(O)(c2ccccc2)c2ccccc2)c1 | inactive: -9.98% |
| COc1cc(C2NCCC3(OCCO3)C2(C)C)cc(OC)c1OC (configuration not stated) | inactive: 2.65% |
| CCOP(=O)(Nc1cccc2ccccc12)OCC | inactive: -1% |
| Nc1cccc2c([As](=O)(O)O)cccc12 | active: 16.1% |
| Cc1ccc(NCCc2c([N+](=O)[O-])cc([N+](=O)[O-])cc2[N+](=O)[O-])cc1 | inactive: 6.88% |
| CCCOP(=S)(Nc1nc(N)cc(=O)[nH]1)OCCC | inactive: -8.84% |
| Clc1n[nH]nc1-c1nn[nH][15n]1 | inactive: 8.11% |
| O=P1(N(CCCl)CCCl)NCCC(C(F)(F)F)O1 (configuration not stated) | inactive: -2.51% |
| CC(C)(C)C(=O)NC(Sc1ncccn1)C(Cl)(Cl)Cl (configuration not stated) | inactive: 4.94% |
| CCC1=CC2Cc3nc4ccc(Cl)cc4c(N)c3C(C1)C2 (configuration not stated) | inactive: -2.98% |
| O=P1(Nc2ccccn2)COc2ccccc2OC1 | inactive: -3.37% |
| CCOP(=O)(NC(=NC(C)c1ccccc1)NC(C)c1ccccc1)OCC (configuration not stated) | inactive: 5.52% |
